This assay deals with PI3K (Homo sapiens, UniProt P42336). The experiment in a line: Fluorescence polarization assay for PI3K.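 Also: PI3K kinase reaction on PIP2 with ATP, 30-60 min, product sensed by GST-GRP with red probe in fluorescence polarization (mP), controls without enzyme and at zero time.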 In kind it is biochemical. The following applies: read-out: PI3Kα IC50.

The chains behind the UniProt entries cited, without tags or fusion partners.
UniProt P42336, whole entry: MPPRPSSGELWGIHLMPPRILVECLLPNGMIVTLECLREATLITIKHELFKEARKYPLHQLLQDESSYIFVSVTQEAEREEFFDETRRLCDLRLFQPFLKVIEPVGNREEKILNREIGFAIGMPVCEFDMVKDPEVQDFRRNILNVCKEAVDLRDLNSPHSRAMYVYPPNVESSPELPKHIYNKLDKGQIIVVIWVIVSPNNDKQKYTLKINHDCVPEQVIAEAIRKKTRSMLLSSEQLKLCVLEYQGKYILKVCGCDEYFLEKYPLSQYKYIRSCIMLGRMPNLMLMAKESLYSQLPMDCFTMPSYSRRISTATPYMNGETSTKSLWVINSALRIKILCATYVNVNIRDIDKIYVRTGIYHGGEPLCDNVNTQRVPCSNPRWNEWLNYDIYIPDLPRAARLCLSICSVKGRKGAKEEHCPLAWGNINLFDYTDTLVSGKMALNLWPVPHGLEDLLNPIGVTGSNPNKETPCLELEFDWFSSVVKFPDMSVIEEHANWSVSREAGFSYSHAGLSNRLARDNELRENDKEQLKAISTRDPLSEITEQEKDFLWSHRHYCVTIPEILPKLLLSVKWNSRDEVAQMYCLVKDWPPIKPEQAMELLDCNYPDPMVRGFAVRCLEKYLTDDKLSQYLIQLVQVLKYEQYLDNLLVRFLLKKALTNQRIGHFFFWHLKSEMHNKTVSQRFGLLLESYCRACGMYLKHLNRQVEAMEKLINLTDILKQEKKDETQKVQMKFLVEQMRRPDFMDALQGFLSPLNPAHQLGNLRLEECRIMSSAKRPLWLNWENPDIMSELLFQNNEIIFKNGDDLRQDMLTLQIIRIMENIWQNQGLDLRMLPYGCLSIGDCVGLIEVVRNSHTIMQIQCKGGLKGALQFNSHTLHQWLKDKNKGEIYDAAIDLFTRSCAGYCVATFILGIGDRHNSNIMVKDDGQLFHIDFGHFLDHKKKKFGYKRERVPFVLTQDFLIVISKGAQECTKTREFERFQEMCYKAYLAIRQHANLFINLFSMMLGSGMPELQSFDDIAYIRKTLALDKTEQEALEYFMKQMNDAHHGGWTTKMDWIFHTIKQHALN

Consider one substance from US20080234262A1 (Wyeth, priority 2007, published 2008).

For orientation: IC50 means the point on the concentration scale where inhibition reaches its midpoint. For “4-(4-morpholin-4-yl-1-phenyl-1H-pyrazolo[3,4-d]pyrimidin-6-yl)aniline [Example 10]”, the IC50 came to 0.069 µM.
